Measured values from PMC5511190.

Biological target: GST-LRRK2 WD40 G2385R (human) (UniProt Q5S007)
Test: affinity purification with mass spectrometry; 5 µg GST fusion protein on glutathione-Sepharose incubated with adult mouse brain lysate or crude SV fraction (LP2) (1 mg protein) 2 h at 4 °C; washes 150 mM NaCl, 2 mM EDTA, 50 mM Tris-HCl, 0.2% Triton, pH 7.4; LC-MS/MS with label-free quantification, 4 samples per condition (GST-control, GST-WD40, GST-WD40-G2385R)

Row | Substance | G2385R/WT (ratio of abundance in G2385R versus wild-type bait)
1 | Actin, cytoplasmic 2 (from UniProt P63260 1-375) (natural protein) | 0.37
2 | Actin-related protein 2 (from UniProt P61161 1-394) (natural protein) | 0.52

Second part, the substance after the results:

Row | G2385R/WT (ratio of abundance in G2385R versus wild-type bait) | Substance
3 | 0.23 | Actin-related protein 2/3 complex subunit 3 (from UniProt Q9JM76 1-178) (natural protein)
4 | 0.19 | Actin-related protein 3 (from UniProt Q99JY9 1-418) (natural protein)
5 | 0.5 | Dihydropyrimidinase-related protein 2 (from UniProt O08553 1-572) (natural protein)
